Assay results published in ChEMBL document CHEMBL2331513, “Trisubstituted Sulfonamides: a New Chemotype for Development of Potent and Selective CB2 Receptor Inverse Agonists” (ACS Med Chem Lett, 2013).

Sequences of proteins named here, by UniProt entry; tags and fusion partners are left off.
UniProt P34972, whole entry: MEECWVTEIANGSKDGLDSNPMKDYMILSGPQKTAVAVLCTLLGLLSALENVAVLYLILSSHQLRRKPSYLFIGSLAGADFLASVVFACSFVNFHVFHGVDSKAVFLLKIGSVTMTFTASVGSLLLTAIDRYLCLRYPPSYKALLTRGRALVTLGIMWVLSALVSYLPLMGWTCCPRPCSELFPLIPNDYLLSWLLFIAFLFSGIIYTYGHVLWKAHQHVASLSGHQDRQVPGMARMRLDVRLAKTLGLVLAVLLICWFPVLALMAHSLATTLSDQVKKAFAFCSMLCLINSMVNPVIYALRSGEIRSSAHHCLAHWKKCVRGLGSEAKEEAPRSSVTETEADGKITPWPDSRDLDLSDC

Target: Cannabinoid receptor 2 (Homo sapiens, UniProt P34972)
Experiment: Agonist activity at human CB2 receptor expressed in CHO cell membranes assessed as increase in forskolin-stimulated cAMP production after 45 mins by TR-FRET assay
Format: functional, cell-based

Structure (SMILES): CCCCCCC(C)(C)c1cc(OC)c(C2C=C(CO)[C@H]3C[C@@H]2C3(C)C)c(OC)c1 (stereo partly specified)
- EC50: 85 nM
